Data: patent publication US12636370B2, “Combination therapy for treatment of cancer” (Institute For Cancer Research, priority 2019, dated 2026)

Sequences of proteins named here, by UniProt entry; tags and fusion partners are left off.
UniProt P50750, whole entry: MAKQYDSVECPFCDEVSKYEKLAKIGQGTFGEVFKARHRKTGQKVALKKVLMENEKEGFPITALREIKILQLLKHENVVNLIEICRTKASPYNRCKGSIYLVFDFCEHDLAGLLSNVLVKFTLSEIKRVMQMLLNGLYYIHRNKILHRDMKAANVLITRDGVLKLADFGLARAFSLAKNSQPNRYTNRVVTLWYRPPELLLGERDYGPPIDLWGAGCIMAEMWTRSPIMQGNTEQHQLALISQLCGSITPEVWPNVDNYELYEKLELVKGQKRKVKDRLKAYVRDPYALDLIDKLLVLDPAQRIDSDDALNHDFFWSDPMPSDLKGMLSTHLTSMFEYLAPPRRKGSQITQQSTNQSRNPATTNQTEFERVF

Columns and labels:
Assay type in all cases: cell-based
[1] = test system: OVCAR8 Thal-R cells; experiment: CellTiter-Glo cell viability, OVCAR8 Thal-R cells; conditions: OVCAR8, escalating doses, 5 days
Description: Chronic exposure of OVCAR8 cells to CDK9 PROTAC (Thal SNS 032) sensitized cells to RAD001 or GSK1904529A. […] Moreover, these studies show both BET PROTACs and CDK9 PROTACs elicit a similar dependency on MTOR signaling to promote drug resistance. […] OVCAR8 Thal-R cells were treated with Thal (500 nM) or (2 μM) GSK529A, lapatinib, or RAD001 for 4 hours and protein levels were assessed by Western blot. (FIG. 15B). […] Parental or Thal-R OVCAR8 cells were treated with escalating doses of GSK1904529A (FIG. 15C), lapatinib (FIG. 15D), or RAD001 (FIG. 15E) for 5 days and cell viability was assessed by CellTiter-Glo. Thal-R inhibitor treated cell viabilities were normalized to DMSO treated Thal-R cells. Combination therapies involving GSK529A or RAD001 and Thal SNS 032 improved growth repression of OVCAR8 cells. OVCAR8 cells were treated with 100 nM Thal SNS 032, escalating doses of GSK529A or RAD001, or the combination of Thal SNS 032 and kinase inhibitors, for 5 days and cell viability was assessed by CellTiter-Glo (FIGS. 15F and 15G).

[2] = target: CDK9 (Homo sapiens, UniProt P50750); experiment: Western blot of CDK9 protein levels, OVCAR8 Thal-R cells; conditions: Thal 500 nM or 2 μM kinase inhibitor, 4 hours
[3] = test system: OVCAR8 MZ1-R cells; experiment: CellTiter-Glo cell viability, OVCAR8 MZ1-R cells; conditions: OVCAR8, inhibitor screen, escalating doses, 5 days

CS(=O)(=O)CCNCc1ccc(-c2ccc3ncnc(Nc4ccc(OCc5cccc(F)c5)c(Cl)c4)c3c2)o1 [lapatinib]
sensitivity of Thal-R cells relative to parental cells [1]: more sensitive
CDK9 protein levels [2]: overcome by GSK529A, lapatinib or RAD001 treatment
sensitivity of MZ1-R cells relative to JQ1-R cells or parental cells [3]: more sensitive
